Legend:
PDGFR beta [1] = target: T1, PDGFR beta (Homo sapiens, UniProt P09619); test: Phospho PDGFR Cell Assay, sandwich ELISA (Example A); conditions: read-out: PDGFR Cell ELISA IC50, averaged IC50, PDGFR beta phosphorylation in HS27 human fibroblast cell line, PDGF-BB stimulation 5 minutes
Method: Compounds were screened for inhibition of PDGFR beta phosphorylation in the HS27 human fibroblast cell line. Cells were seeded into a 96 well tissue culture plate, then incubated overnight in a 37° C., 5% CO2 incubator. The following day, cells were treated for one hour with test compound dilutions. After stimulation with PDGF-BB ligand for 5 minutes, cells were lysed and added to a sandwich ELISA plate from R&D Systems to detect levels of phospho PDGFR beta. A standard 4-parameter logistic model was fit to the inhibitor dose response curves, with the IC50 being defined as the concentration of inhibitor giving 50 percent of control (POC).

Protein sequences, listed by entry. Tags and fused reporters are not part of them. Residues count along the entry.
UniProt P09619, 33-1106 limits assumed: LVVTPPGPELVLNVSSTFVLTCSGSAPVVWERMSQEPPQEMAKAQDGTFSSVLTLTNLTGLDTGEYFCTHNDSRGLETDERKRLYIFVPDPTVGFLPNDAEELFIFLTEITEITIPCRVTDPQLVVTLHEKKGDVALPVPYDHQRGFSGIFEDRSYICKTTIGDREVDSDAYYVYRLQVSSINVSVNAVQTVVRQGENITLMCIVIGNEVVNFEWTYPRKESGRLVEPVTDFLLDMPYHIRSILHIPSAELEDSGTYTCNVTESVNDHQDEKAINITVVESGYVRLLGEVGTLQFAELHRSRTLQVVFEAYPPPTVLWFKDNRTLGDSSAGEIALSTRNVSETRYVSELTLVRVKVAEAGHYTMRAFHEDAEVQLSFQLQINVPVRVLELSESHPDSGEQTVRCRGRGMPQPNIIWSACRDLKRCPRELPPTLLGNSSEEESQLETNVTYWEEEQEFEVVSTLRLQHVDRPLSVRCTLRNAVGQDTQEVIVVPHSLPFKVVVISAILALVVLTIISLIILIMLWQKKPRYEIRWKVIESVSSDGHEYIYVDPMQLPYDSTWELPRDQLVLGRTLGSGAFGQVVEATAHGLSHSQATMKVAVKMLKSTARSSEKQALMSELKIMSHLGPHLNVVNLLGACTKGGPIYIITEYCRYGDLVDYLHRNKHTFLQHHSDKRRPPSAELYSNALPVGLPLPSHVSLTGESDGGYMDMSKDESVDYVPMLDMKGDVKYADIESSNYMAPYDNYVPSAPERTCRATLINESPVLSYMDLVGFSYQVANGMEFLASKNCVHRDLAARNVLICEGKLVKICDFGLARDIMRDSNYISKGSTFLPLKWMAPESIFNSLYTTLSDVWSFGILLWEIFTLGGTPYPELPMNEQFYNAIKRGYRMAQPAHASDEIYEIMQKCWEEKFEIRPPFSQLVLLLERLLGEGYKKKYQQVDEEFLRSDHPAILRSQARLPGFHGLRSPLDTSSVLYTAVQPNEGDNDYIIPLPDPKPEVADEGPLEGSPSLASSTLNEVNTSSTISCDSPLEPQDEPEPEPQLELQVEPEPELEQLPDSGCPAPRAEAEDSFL
UniProt P07333, 20-972 limits assumed: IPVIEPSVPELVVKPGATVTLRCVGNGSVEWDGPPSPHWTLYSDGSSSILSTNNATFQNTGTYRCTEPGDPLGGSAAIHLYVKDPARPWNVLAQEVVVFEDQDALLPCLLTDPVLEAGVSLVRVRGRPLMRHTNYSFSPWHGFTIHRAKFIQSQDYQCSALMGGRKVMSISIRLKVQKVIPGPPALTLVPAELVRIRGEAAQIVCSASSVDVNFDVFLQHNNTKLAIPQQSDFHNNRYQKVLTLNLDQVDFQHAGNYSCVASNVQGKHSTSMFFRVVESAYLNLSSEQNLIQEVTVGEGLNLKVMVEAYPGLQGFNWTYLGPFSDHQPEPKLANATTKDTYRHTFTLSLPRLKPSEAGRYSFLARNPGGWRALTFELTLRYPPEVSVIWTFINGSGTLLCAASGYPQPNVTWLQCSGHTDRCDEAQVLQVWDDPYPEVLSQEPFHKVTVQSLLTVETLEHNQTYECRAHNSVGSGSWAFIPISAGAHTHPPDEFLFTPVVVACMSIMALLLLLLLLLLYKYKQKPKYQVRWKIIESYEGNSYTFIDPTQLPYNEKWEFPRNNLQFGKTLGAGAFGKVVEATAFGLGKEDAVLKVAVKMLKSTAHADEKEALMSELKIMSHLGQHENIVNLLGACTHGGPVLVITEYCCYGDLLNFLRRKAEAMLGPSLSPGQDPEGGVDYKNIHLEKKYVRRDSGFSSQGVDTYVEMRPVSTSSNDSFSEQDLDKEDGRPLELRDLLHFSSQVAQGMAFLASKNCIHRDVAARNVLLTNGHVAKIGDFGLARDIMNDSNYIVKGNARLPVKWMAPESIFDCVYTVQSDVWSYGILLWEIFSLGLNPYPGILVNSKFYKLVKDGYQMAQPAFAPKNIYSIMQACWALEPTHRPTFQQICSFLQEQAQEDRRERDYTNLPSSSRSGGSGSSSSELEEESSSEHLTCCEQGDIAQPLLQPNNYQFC
UniProt P10721, 26-976 limits assumed: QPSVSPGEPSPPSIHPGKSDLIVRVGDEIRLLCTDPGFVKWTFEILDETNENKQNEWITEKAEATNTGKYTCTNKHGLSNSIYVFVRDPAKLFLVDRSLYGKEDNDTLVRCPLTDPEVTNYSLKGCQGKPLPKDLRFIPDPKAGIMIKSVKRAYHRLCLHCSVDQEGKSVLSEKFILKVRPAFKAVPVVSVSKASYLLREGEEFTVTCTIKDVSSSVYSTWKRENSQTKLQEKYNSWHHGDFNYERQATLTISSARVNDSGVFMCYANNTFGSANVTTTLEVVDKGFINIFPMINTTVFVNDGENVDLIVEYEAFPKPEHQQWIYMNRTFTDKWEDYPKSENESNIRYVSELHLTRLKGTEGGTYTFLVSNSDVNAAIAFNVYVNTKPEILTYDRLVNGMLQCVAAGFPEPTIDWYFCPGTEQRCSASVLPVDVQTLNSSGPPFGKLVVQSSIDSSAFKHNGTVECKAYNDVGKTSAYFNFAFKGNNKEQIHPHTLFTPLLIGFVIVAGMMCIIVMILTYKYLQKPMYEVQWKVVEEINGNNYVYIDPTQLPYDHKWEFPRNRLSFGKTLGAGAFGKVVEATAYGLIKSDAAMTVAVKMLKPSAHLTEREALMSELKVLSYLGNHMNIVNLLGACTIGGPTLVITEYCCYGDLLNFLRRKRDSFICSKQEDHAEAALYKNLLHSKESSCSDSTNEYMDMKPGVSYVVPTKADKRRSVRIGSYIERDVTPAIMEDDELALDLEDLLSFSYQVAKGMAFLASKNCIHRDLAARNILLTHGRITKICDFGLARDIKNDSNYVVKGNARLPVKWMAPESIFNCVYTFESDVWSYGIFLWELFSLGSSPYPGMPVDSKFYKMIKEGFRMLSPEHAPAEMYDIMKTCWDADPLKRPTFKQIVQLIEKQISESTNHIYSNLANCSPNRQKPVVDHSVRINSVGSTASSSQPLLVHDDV

cFMS = cFMS (Homo sapiens, UniProt P07333); test: cFMS Cell-Based Assay (Example C); conditions: read-out: cFMS Cell ELISA IC50; averaged IC50; phospho-cFMS in THP-1 cells stimulated with 250 ng/mL recombinant human MCSF
Method: The ability of compounds of Formula I to inhibit cFMS activation in cells was determined by the following assay. THP-1 cells (human acute monocytic leukemia cell line) were serum-starved for 4 hours prior to treatment with compounds of Formula I for 1 hour. The concentration of compounds of Formula I was varied over a 9-point, 3-fold dilution series with 5,000 nM typically being the highest dose. Cell culture and treatment were carried out in a humidified 37° C., 5% CO2 incubator. Treated cells were stimulated with 250 ng/mL recombinant human MCSF for 1 minute to induce activation of cFMS. Cells were lysed in a manner which preserves phosphoproteins, and the lysate was analyzed by ELISA (R&D Systems, Human Phospho-M-CSF R DuoSet IC DYC3268), in which total cFMS protein in the lysate is captured and phosphotyrosine residues of cFMS are detected. A standard curve, made using purified phospho-M-CSF R protein, was used to quantify phospho-c-FMS in compound-treated wells. A standard 4-parameter logistic model was fit to the inhibitor dose response curves, with the IC50 being defined as the concentration of inhibitor giving 50 percent of control (POC).

c-KIT = c-KIT (Homo sapiens, UniProt P10721); test: c-KIT Cell-Based Assay (Example D); conditions: read-out: cKIT Cell ELISA IC50; averaged IC50; phospho-c-KIT in M-07e cells stimulated with 150 ng/ml recombinant human SCF
Method: The ability of compounds of Formula I to inhibit c-KIT activation in cells was determined by the following assay. M-07e cells (human acute megakaryoblastic leukemia cell line) were serum-starved for 4 hours prior to treatment with compounds of Formula I for 1 hour. The concentration of compounds of Formula I was varied over a 9-point, 3-fold dilution series with 5,000 nM typically being the highest dose. Cell culture and treatment were carried out in a humidified 37° C., 5% CO2 incubator. Treated cells were stimulated with 150 ng/ml recombinant human SCF for 4 minutes to induce activation of c-KIT. Cells were lysed in a manner which preserves phosphoproteins, and the lysate was analyzed by ELISA (R&D Systems, Human Phospho-SCF R DuoSet IC DYC3527), in which total c-KIT protein in the lysate is captured and phosphotyrosine residues of c-Kit are detected. A standard curve, made using purified phospho-SCF R protein, was used to quantify phospho-c-KIT in compound-treated wells. A standard 4-parameter logistic model was fit to the inhibitor dose response curves, with the IC50 being defined as the concentration of inhibitor giving 50 percent of control (POC).

PDGFR beta [2] = target: T1, PDGFR beta; test: Phospho PDGFR LICOR Cell Assay (Example B); conditions: read-out: PDGFR Cell LICOR IC50; averaged IC50; PDGFR beta phosphorylation in HS27 human fibroblast cell line, PDGF-BB stimulation 10 minutes, normalized to total ERK
Method: Compounds were screened for inhibition of PDGFR beta phosphorylation in the HS27 human fibroblast cell line. Cells were seeded into a 96 well tissue culture plate, then incubated overnight in a 37° C./5% CO2 incubator. The following day, cells were treated for one hour with test compound dilutions. After stimulation with PDGF-BB ligand for 10 minutes, cells were washed with PBS and fixed in 3.7% formaldehyde in PBS for 10 minutes. This was followed by washing in PBS/0.2% Triton X-100 and permeabilizing in 100% MeOH for 10 minutes. Cells were incubated in blocking buffer for 1 hour. Antibodies to phosphorylated PDGFRβ and total ERK were added to the cells and incubated for 3 hours. After washing with PBS/0.2% Triton X-100, the cells were incubated with fluorescently-labeled secondary antibodies for an additional hour. Cells were then washed with PBS and analyzed for fluorescence at both wavelengths using the Odyssey Infrared Imaging System (LI-COR Biosciences). Phosphorylated PDGFR signal was normalized to total ERK signal. A standard 4-parameter logistic model was fit to the inhibitor dose response curves, with the IC50 being defined as the concentration of inhibitor giving 50 percent of control (POC).

| SMILES | IC50 (PDGFR beta [1]) | IC50 (cFMS) | IC50 (c-KIT) | IC50 (PDGFR beta [2]) |
| --- | --- | --- | --- | --- |
| COCCOc1ccn2c(C(=O)Nc3cccc4c3cnn4Cc3ccc(F)cc3F)cnc2c1 | 26.3 nM | 10.5 nM | 8.4 nM | – |
| O=C(Nc1cccc2c1cnn2Cc1ccccc1)c1cnc2ccc(F)cn12 | – | 57.8 nM | 36.5 nM | 21.9 nM |
